US8247349B2, “Enhanced abscisic acid analog and fertilizer performance” (Valent BioSciences Corporation, priority 2007, dated 2012)

Columns and labels:
[1] = tested on: tomato leaf transpiration; assay: Tomato leaf transpiration inhibition after foliar application (LI-1600 Steady State Porometer); format: in vivo, Tomato (variety: Rutgers)
[2] = tested on: tomato plant leaves; assay: Phytotoxicity study: number of injured leaves after foliar application; conditions: for Number of injured leaves: 100 mM nutrient alone, one foliar application

Substance: ammonium nitrate
- Transpiration rate (% of control) ([1]; 1 mM alone, foliar, 1 day after treatment): 107 % of control
- Transpiration rate (% of control) ([1]; 1 mM alone, foliar, 2 days after treatment): 107 % of control
- Transpiration rate (% of control) ([1]; 1 mM alone, foliar, 3 days after treatment): 106 % of control
- Transpiration rate (% of control) ([1]; 1 mM alone, foliar, 4 days after treatment): 83 % of control
- Effect on PBI-429 performance for transpiration inhibition (in words) ([1]; 1 mM ammonium nitrate with 25 ppm PBI-429): did not affect PBI-429 performance for transpiration inhibition
- Transpiration rate (% of control) ([1]; 10 mM alone, foliar, 1 day after treatment): 95 % of control
- Transpiration rate (% of control) ([1]; 10 mM alone, foliar, 2 days after treatment): 95 % of control
- Transpiration rate (% of control) ([1]; 10 mM alone, foliar, 3 days after treatment): 131 % of control
- Transpiration rate (% of control) ([1]; 10 mM alone, foliar, 4 days after treatment): 106 % of control
- Effect on PBI-429 performance for transpiration inhibition (in words) ([1]; 10 mM ammonium nitrate with 25 ppm PBI-429): improved PBI-429 performance for transpiration inhibition
- Transpiration rate (% of control) ([1]; 100 mM alone, foliar, 1 day after treatment): 97 % of control
- Transpiration rate (% of control) ([1]; 100 mM alone, foliar, 2 days after treatment): 97 % of control
- Transpiration rate (% of control) ([1]; 100 mM alone, foliar, 3 days after treatment): 128 % of control
- Transpiration rate (% of control) ([1]; 100 mM alone, foliar, 4 days after treatment): 107 % of control
- Effect on tomato leaf transpiration (in words) ([1]; 1, 10 or 100 mM alone, foliar, 4-day experimental period): Neither urea nor ammonium nitrate at any of three tested concentrations significantly reduced tomato leaf transpiration
- Phytotoxicity (in words) ([2]; 100 mM alone, beginning 5 days after treatment): showed phytotoxicity
- Number of injured leaves ([2]; 5 days after treatment): 8.2
- Number of injured leaves ([2]; 10 days after treatment): 14.8

This is a selection: effects in other tests are not listed, and their absence says nothing.
